# Ab-14 light chain CDR variants: yeast mating affinities

Binding partner: SARS-CoV-2 spike HR2 peptide, sequence PDVDLGDISGINAS.

Each scFv is VH, three GGGGS repeats, VL, as in the parent Ab-14, and differs from it in the CDRs of the light chain only.
VH: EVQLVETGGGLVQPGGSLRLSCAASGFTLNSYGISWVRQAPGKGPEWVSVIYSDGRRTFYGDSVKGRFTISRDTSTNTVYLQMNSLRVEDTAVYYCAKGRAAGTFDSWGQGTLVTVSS
VL: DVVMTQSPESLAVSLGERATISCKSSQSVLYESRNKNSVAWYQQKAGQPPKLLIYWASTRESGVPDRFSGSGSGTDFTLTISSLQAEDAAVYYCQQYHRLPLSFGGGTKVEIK

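Phage display of a naive human antibody library on the peptide gave the parent. Designed CDR sequences, proposed from the first random library and measured here. Several design methods are mixed in this list. The assay is AlphaSeq: two haploid yeast populations carry antibody and antigen on their surface. Pairs that bind mate more often; barcode pairs of the diploids are counted by sequencing. Read counts were normalised to the haploid input and turned into Kd by a linear fit to BCL2-family pairs of known affinity, for each replicate. There are six technical replicates.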

Variants are written as CDR1, CDR2 and CDR3 of the light chain (limits as in the source). Parent: KSSQSVLYESRNKNSVA, WASTRES, QQYHRLPLS. Variants here have more than six changes. Values are apparent Kd, the geometric mean of the replicates that gave a signal; lower means stronger binding. An entry "nd" has no value in the source: the pair was not observed among the diploids in any replicate. This suggests poor binding but is not conclusive. Empty control strains, which show no peptide, gave a signal in 4% of pairings with all light chain designs; the median was 430 nM and 95% of these signals were weaker than 38 nM. No background was subtracted.

With KLRQSTAYLSENKNSVA, ELTTRGS, QQYFRLPLS the result was 17 nM (6 of 6 replicates).
With MMSQVWGMGQRHRNNVA, QTSTRED, QQYDRLPLV the result was 5.6 nM (6 of 6 replicates).
With IISGSMVMESRNKNSVA, NAETREY, QHYDRLPLS the result was 10 nM (6 of 6 replicates).
With KMSQSQPYESRMSNAVA, NASYRMS, QQYHRLPLS the result was 2.1 nM (6 of 6 replicates).
With KISMSITFESRNKNSVA, ENSTRES, QSYHRLPLS the result was 34 nM (6 of 6 replicates).
With HLKTMPGQGPQTYSSIA, HAEIRTP, QQYYRLPLM the result was nd (0 of 6 replicates).
With TISQMTALFNQTINNVA, EVSTREN, QQYDRLPLM the result was 15 nM (6 of 6 replicates).
With ALFQKGFELHGDRQSIA, HSDTRLA, QQYSRLPLA the result was 26 nM (6 of 6 replicates).
With KLEMSQPYESRNKNSVA, HASVRES, QQYHRLPLS the result was 450 pM (6 of 6 replicates).
With WSSQSSLYESMNKNNVA, WASTRES, QQPHRLPIN the result was 1.1 nM (5 of 6 replicates).
With KLPLATMQQSVSKNNVA, ELSTRGS, QQYHRLPLS the result was 3.8 nM (6 of 6 replicates).
With KIRVHNLMFSQNESNIA, GMSVRSE, QQYYHLPLT the result was 11 nM (6 of 6 replicates).
With KISMLYRYESQNKNSIA, EMSRREN, QQYHRLPLS the result was 1.4 nM (6 of 6 replicates).
With QIYQAMHTLSQMKDNVA, DVNERGQ, QQYHRLPLS the result was 1.5 nM (6 of 6 replicates).
With MISNVMNTLTREGNNVA, DLQNREK, QQYFRLPLS the result was nd (0 of 6 replicates).
With KLGMTLNAEMMKKNNVA, DLVYREN, QQYHRLPLS the result was 1.5 nM (6 of 6 replicates).
With KLSMGHGYESRNKNSVA, QASQREE, QQYHRLPLS the result was 670 pM (6 of 6 replicates).
With KISYMGEFFSTNHSSIA, QASTREQ, QQYHRLPLS the result was 24 nM (5 of 6 replicates).
With KCSQNMGETQRNKNSVA, EVSTVPS, QQYFRLPLS the result was 11 nM (6 of 6 replicates).
With TISQVMNTLTRHGNNVA, DLEERED, QQYFRLPLS the result was 9.5 nM (6 of 6 replicates).
With TISSVMNHMTRIENNVA, NQDMREE, QQYDRLPLS the result was 14 nM (6 of 6 replicates).
With KIYMMTGYASRNADSIA, DNSTRGR, QQYHRLPLS the result was 170 nM (3 of 6 replicates).
With SLGLVTMLEYAGRNSVA, NNSTREE, QQYDRLPLS the result was 610 nM (4 of 6 replicates).
With KIFQSWGMEQRNVNSVA, HASQRLD, QQYHRLPLS the result was 2.2 nM (6 of 6 replicates).
With QLSMWEQNGTRGYSSVA, DDDVRMA, QQYHRLPLS the result was 40 nM (6 of 6 replicates).
With KLAMYLEMNARTIHAIA, EANLKPS, QQYNRLPIS the result was 350 nM (2 of 6 replicates).
With KTEVSQDYESRNQNSVA, NASERES, QQYHRLPLS the result was 970 pM (6 of 6 replicates).
With TITEFMGNLQQARNSVA, DTSTLGN, QSYDRLPLS the result was 99 nM (6 of 6 replicates).
With MFSQLFMYGSRNYNSVA, QASTREQ, QQYHRLPLI the result was 54 nM (1 of 6 replicates).
With TLVGNIQGGGWAKKSVA, DAVMRVN, QQYYRLPLS the result was 5.5 nM (6 of 6 replicates).
With KISQMYRYEQQNSSSIA, EANTRLN, QSYHRLPLS the result was 280 nM (4 of 6 replicates).
With QVAAIHEHSSDLNKAMA, EASTRDA, QQYERLPLS the result was 2.6 nM (6 of 6 replicates).
With TISGVMQQMSHSKNNVA, EVSTRLD, QQYFRLPLE the result was 7.2 nM (6 of 6 replicates).
With MISQLFMYGSRNYASIA, QASTREK, QQYDRLPLI the result was nd (0 of 6 replicates).
With KLEEEADVITEIGNSVA, EMSMVMD, QQYHRLPLA the result was 5.6 nM (6 of 6 replicates).
With KLSQYVGGESRNKSSLA, DNSTREN, QQYERLPLS the result was 220 nM (6 of 6 replicates).
With IVSQLMLWGYHAKNSIA, EAEQRIN, QQYDRLPLF the result was nd (0 of 6 replicates).

Repeated from above, the 5 best binders with a signal in all replicates:

{"CDR-L1": "KLEMSQPYESRNKNSVA", "CDR-L2": "HASVRES", "CDR-L3": "QQYHRLPLS", "apparent Kd": "450 pM", "detected": "6 of 6"}
{"CDR-L1": "KLSMGHGYESRNKNSVA", "CDR-L2": "QASQREE", "CDR-L3": "QQYHRLPLS", "apparent Kd": "670 pM", "detected": "6 of 6"}
{"CDR-L1": "KTEVSQDYESRNQNSVA", "CDR-L2": "NASERES", "CDR-L3": "QQYHRLPLS", "apparent Kd": "970 pM", "detected": "6 of 6"}
{"CDR-L1": "KISMLYRYESQNKNSIA", "CDR-L2": "EMSRREN", "CDR-L3": "QQYHRLPLS", "apparent Kd": "1.4 nM", "detected": "6 of 6"}
{"CDR-L1": "KLGMTLNAEMMKKNNVA", "CDR-L2": "DLVYREN", "CDR-L3": "QQYHRLPLS", "apparent Kd": "1.5 nM", "detected": "6 of 6"}

The range of this assay differs from that of the first round, and the authors advise against merging the two. The parent sequence was in this pool as ten entries: three were never detected, three once, and four in most replicates, with averages from 2.2 nM to 240 nM. In the paper, a design with two or fewer of six values counts as a poor binder.

Data: MIT Lincoln Laboratory AlphaSeq set, Li et al. 2023, doi:10.1038/s41467-023-39022-2, as distributed in FLAb.